Reference: PubChem BioAssay AID720507 (National Center for Advancing Translational Sciences (NCATS), 2013)
The entries are a selection whose mix differs from that of the whole data set. Results filed as inconclusive are left out. Active and inactive are the calls of the source. The call rests on the fitted dose curve; in most records, active means well fitted activation curve with a large enough effect; inconclusive means small, poorly fitted or top-dose-only effect; inactive means flat fitted curve, though single readings scatter.

By UniProt entry, the sequences of proteins in these tests, tags left out.
UniProt P14416, whole entry, looked up: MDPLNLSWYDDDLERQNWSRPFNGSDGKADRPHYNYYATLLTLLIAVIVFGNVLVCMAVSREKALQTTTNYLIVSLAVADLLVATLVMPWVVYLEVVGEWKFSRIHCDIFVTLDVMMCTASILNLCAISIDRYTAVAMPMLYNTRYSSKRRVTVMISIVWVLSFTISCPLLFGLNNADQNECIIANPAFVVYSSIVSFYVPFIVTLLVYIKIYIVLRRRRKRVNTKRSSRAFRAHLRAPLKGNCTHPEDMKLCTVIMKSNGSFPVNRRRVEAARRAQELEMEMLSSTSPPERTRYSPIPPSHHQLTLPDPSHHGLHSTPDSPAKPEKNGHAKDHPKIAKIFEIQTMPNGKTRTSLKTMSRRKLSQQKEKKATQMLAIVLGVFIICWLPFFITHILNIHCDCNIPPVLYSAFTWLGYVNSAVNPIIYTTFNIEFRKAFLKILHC

target: D(2) dopamine receptor (Homo sapiens) (UniProt P14416); assay: qHTS of D3 Dopamine Receptor Agonist: D2 Dopamine Receptor B-arrestin Agonist Counterscreen; settings: DiscoveRx PathHunter D2 beta-arrestin, luminescence, 90 min, percent relative to full dopamine signal; at 76.9 µM (top of the series); further: % of control where 0% means no effect; nearly all actives have a fitted effect of over 70% in size
Text: D3 DARs represent a very important target for the treatment of several neuropsychiatric disorders. Indeed, one of the most promising therapeutic applications for the D3 DAR is in the area of addiction and related disorders. […] These findings have been observed with a number of addictive substances including cocaine, amphetamine, nicotine, and alcohol. […] Increased D3 DAR activity can thus lead to neuroprotective and neurorestorative actions in the CNS. […] This assay is used to profile the activity of the identified D3 dopamine receptor agonist against the D2 dopamine receptor. Greater than 10% of the maximum dopamine agonist response is desired for this assay. NIH Molecular Libraries Probe Production Centers Network [MLPCN] NIH Chemical Genomics Center [NCGC] MLPCN Grant: NS064831 Assay Submitter (PI): David Sibley
DiscoveRx D2 cells were thawed from frozen stock and seeded at 2,100 cells/ 3 uL/well media (DiscoveRx Plating Reagent 2) with MultiDrop Combi dispenser (Thermo Scientific, Logan, UT) onto white tissue culture treated 1536-well Aurora plates (Brooks Automation, Chelmsford, MA) and allowed to attach overnight at 37 deg C, 5% CO2. […] The plates were incubated at ambient temperature for 1 hour and then the luminescent signal was read on ViewLux plate reader (PerkinElmer, Waltham, MA).

| SMILES | activation |
| --- | --- |
| O=C(NCC1(N2CCCCC2)CCCCC1)c1ccc(Cl)s1 | inactive: -2.72% |
